Legend:
HeLa = experiment: Antiproliferative activity against human HeLa cells assessed as growth inhibition after 48 hrs by MTT assay; format: functional, cell-based
PC-3 = experiment: Antiproliferative activity against human PC3 cells assessed as growth inhibition after 48 hrs by MTT assay; format: functional, cell-based; conditions: PC-3, 48 h

COc1cccc2c1C(=O)c1c(O)c3c(c(O)c1C2=O)C[C@@](O)(C(=O)CO)C[C@@H]3O[C@H]1C[C@H](N)[C@H](O)[C@H](C)O1 [DOXORUBICIN]
IC50 (HeLa): 1500 nM
IC50 (PC-3): 1700 nM

Source: ChEMBL document CHEMBL1938276, “Design and synthesis of 2-heterocyclyl-3-arylthio-1H-indoles as potent tubulin polymerization and cell growth inhibitors with improved metabolic stability” (J Med Chem, 2011)
